The nature of this data set: Solubility of the isolated product in organic solvents, as noted in the synthesis examples. Type of data set: physicochemical.

Consider “[(C12H25)3NH]4{(HP)2Mo5O21} [Example 20]”, for which, where the note is “hexane”, the soluble in hexane entry is “soluble”.

For the substance “[(C13H27)2NH2]4{(C6H5P)2Mo5O21} [Example 21]”, the soluble in cyclohexane entry (cyclohexane) is reported as “soluble”.

Values taken from patent publication EP0755938B1, “Ligated polyoxometalates and method for their synthesis” (THE B.F. GOODRICH COMPANY, priority 1995, dated 1997).
